Data published in US5610271A, “Kappa receptor selective opioid peptides” (Torrey Pines Institute for Molecular Studies, priority 1995, dated 1997).
pIC50: −log10 of the molar value.

Protein sequences, listed by entry. Tags and fused reporters are not part of them. Lines headed by an entry give the natural chain unless they say otherwise; changes in a name come on top.
UniProt P41144: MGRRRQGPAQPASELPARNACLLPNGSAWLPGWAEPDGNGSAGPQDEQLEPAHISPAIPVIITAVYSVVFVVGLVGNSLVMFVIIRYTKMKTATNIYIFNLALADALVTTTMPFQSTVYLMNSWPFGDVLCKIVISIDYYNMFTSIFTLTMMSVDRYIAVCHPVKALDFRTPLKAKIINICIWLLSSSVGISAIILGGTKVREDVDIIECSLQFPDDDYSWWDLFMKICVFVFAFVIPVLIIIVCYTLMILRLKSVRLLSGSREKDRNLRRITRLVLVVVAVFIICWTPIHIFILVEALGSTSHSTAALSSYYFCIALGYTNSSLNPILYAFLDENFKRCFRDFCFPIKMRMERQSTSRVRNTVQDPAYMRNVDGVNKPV

Target: T1, κ receptor (Cavia porcellus, UniProt P41144)
T1 construct: tissue homogenates prepared from guinea pig brains (cortex and cerebellum); tissue Harlan Bioproducts for Science (Indianapolis, Ind.); host or cells: guinea pig brain, cortex and cerebellum, crude membrane homogenate
Assay: Radioreceptor assay selective for the kappa receptor (inhibition of [3H]-U69,593 binding)
Set-up: species or system guinea pig
Method: Guinea pig brains, frozen in liquid nitrogen, were obtained from Harlan Bioproducts for Science (Indianapolis, Ind.). Frozen brains were thawed, the cerebella and cortex were removed and weighed. The combined cortex and cerebella were homogenized in 40 ml Tris-HCl buffer (50 mM, pH 7.4, 4° C.) containing 100 μM phenylmethylsulfonyl fluoride (PMSF) 5 mM MgCl2 and 1 mg/ml bovine serum albumin (BSA) and centrifuged (39000×g) (Model J2-HC; Beckman Instruments, Fullerton, Calif.) for 10 min at 4° C. The pellets were resuspended in fresh Tris-HCl buffer and incubated at 37° C. for 40 min. Following incubation, the suspensions were centrifuged as above, the resulting pellets resuspended in 100 volumes of Tris buffer and the suspensions combined. Membrane suspensions were prepared and used in the same day. Protein content of the crude homogenates ranged from 0.1-0.3 mg/ml as determined using the method described by Bradford in Anal. Biochem. 72:248-254 (1976), which is incorporated herein by reference.
Binding assays were carried out in polypropylene tubes. […] Assay tubes were incubated for 2.5 hr at 25° C. […] Bound radioactivity was counted on a Beta-plate Liquid Scintillation Counter (Life Technologies, Gaithersburg, Md.) and expressed in counts per minute (cpm). […] IC50 values were then calculated using the software […] […]

How did the pIC50 turn out when `CCCC[C@@H](NC(=O)[C@@H](Cc1ccccc1)NC(=O)[C@H](N)Cc1ccccc1)C(=O)N[C@H](CCCNC(=N)N)C(=O)O` [SEQ ID NO. 12, (D)Phe-(D)Phe-(D)Nle-(D)Arg] was run?
The pIC50 was 9.10.
